From the supplement of paper PMC10933113
Structures can show the parent of a compound that is named as a salt. ± gives the uncertainty stated by the source. The list shows a part of the results, in another mix than the full data.

These compounds were tested on THP-1 (assay: CD86 surface expression induction over DMSO control (% over DMSO); higher = stronger dendritic cell activation). Conditions: exposure time: 24 h.
Protocol: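 hCLAT-like CD54 and CD86 surface expression on THP1 cells after 24 h exposure at a single concentration (highest non-cytotoxic concentration, or 100-200 µM if not cytotoxic). Flow cytometry (iQue) was run on 5,000 live cells.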

Compound	CD86 surface expression induction
Nc1cccc2ccccc12 [1-Naphthylamine] (100 µM)	20.2 ± 14
CCOC(=S)S [Potassium ethyl xanthate] (200 µM)	-12.8 ± 5.9
Oc1cccc2cccnc12 [8-Hydroxyquinoline citrate] (10 µM)	-9.4 ± 3.6
O=[N+]([O-])[O-].[K+] [Potassium nitrate] (199 µM)	-7.9 ± 8
CCC[CH2][Sn]([Cl])([CH2]CCC)[CH2]CCC [Tributyltin chloride] (10 µM)	43.8 ± 7.6
C=CC(=O)OCC(CC)CCCC (configuration not stated) [2-Ethylhexyl acrylate] (200 µM)	-2.48 ± 8.7
CN(C)C(=S)[S-].CN(C)C(=S)[S-].[Zn+2] [Ziram] (10 µM)	-13.2 ± 4.1
